# Data: patent US20160199497A1, “Cholesterol Ester-Depleting Nanomedicine for Non-toxic Cancer Chemotherapy” (Purdue Research Foundation, priority 2014, published 2016)
# Test system: cancer cells (PC3, MIA-PaCa2, A549, HCT116) and normal cells (hVSMC, BR5)
# Assay: Cell viability of cancer and normal cells
# Type: cell-based, human
# Settings: carrier control
substance,measurement,value
"HSA: human serum albumin, carrier protein of the formulation",contribution to the anti-cancer effect of avasimin,not caused by HSA
